This is a sample that favours compounds with a hit; in the whole collection about 3.7% have one here.
A549 tox – kills or reduces viability of A549 cells in Nrf2 counter-screen; Potency, µM (doses to about 46 µM), without a hit: at the highest dose activity change, negative = cytotoxicity, hits mostly inhibitors; A549 ARE-Fluc cells, CellTiter-Fluor viability, 18-24 h; 390,000 compounds, 0.16% hits; also: potency is read from the fitted curve at half-maximal effect; % is scaled to controls: 0 for no effect and ±100 for the full control effect
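A549 ARE_Fluc cells in 5% FBS OPTI-MEM were exposed to compounds in concentration-response for 18-24 h at 37 deg C. Viability was read by CellTiter-Fluor fluorescence (Ex 405/Em 525) after 30 min, before the luciferase read.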
Nrf2 ARE act – activators of Nrf2 (ARE) signaling; 410,000 compounds, 0.31% hits; AID 624171; AREc32 ARE-luciferase reporter (MCF7-derived line), luminescence, 24 h; Potency, µM (highest dose often 46.1 µM), for the others: top-dose activation, actives largely listed as activators; also: potency is read from the fitted curve at half-maximal effect; % of control where 0% means no effect; nearly all actives have a fitted effect of over 65% in size
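AREc32 cells carrying an ARE-driven firefly luciferase reporter were seeded at 1000 cells/well in OPTI-MEM with 5% FBS, then exposed to compound for 24 hr at 37 deg C. Luminescence was read with Steady-Glo after 30 min at RT.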
Nrf2 inh – Nrf2 pathway inhibition | 360,000 compounds, 2.1% hits | A549 ARE-Fluc reporter, luciferase luminescence, 18-24 h | Potency, µM (highest dose often 46 µM), for the others: at the top dose activity change, negative = inhibition, actives largely listed as inhibitors; also: potency is read from the fitted curve at half-maximal effect; % is scaled to controls: 0 for no effect and ±100 for the full control effect; nearly all actives have a fitted effect of over 60% in size
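Concentration-response testing used A549 ARE_Fluc cells at 5000 cells/well. Following an 18-24 h compound incubation, viability was read by fluorescence (Ex 405/Em 525) and luciferase output by luminescence.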
miR-21 reporter – miR-21 reporter, rising signal | HeLa miR-21 FLuc reporter, luciferase, 48 h | Potency, µM (top dose mostly 38.3 µM), inactives show at the top dose reporter change, positive = more light | 340,000 tested, under 10 active | AID 2288; active = well fitted rising curve with a large enough effect; inconclusive = small, poorly fitted or top-dose-only effect; inactive = no such curve, though single readings can be large or run the other way;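 further: % of control where 0% means no effect; miR-21 action dims this reporter so a rising signal means less miR-21 action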
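HeLa cells endogenously expressing miR-21, stably carrying CMV-driven firefly luciferase with a downstream miR-21 binding site, 2000 cells/well. Titrations up to approximately 40 uM, 48 hours; luciferase luminescence read.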
ClpP mod – qHTS Assay for Activators of ClpP. ATP-dependent Clp protease proteolytic subunit (Bacillus subtilis (strain 168)), P80244. purified B. subtilis ClpP, FRET peptide cleavage, 20 min. Potency, µM (highest dose often 57.5 µM), inactives show top-dose activity change, negative = active. 340,000 compounds, 1.9% hits; active = well fitted falling curve with a large enough effect; inconclusive = small, poorly fitted or top-dose-only effect; inactive = no such curve, though single readings can be large or run the other way; also: potency is read from the fitted curve at half-maximal effect; the source files actives as falling curves though it sought activators and does not explain the sign; nearly all actives have a fitted effect of over 65% in size
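FRET quenching reversal measured ClpP activation: 10 microg/mL B. subtilis ClpP at pH 8 with the FRET-FV decapeptide, read at 430 nm after 320 nm excitation. The 20-min minus 0-min signal was scaled between DMSO/no-enzyme wells and ADEP (5.8 microM final).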
p53 reactivator – restores transcriptional activity of mutant p53; H1299 p53-A138V BP100-luciferase reporter, luminescence, 24 h; Potency, µM (titrated, usually from 92.2 µM), without a hit: at the highest dose activity change, positive = activation, actives largely listed as activators; 320,000 compounds, 0.063% hits; AID 504706; also: potency is read from the fitted curve at half-maximal effect; % of control where 0% means no effect; nearly all actives have a fitted effect of over 45% in size
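H1299 (p53-null), stable ts p53-A138V + BP100-Luc; 1000 cells/well, Opti-MEM/10% FBS; cpd 4 pt, 1:5; 24 h, 37 deg C, 5% CO2; detection reagent 10 min RT; luminescence.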
* marks the source's active call; other numbers are inactive results; ? = inconclusive; nt = no result; [ ] = another dose, or the depositor's remark. Unless noted, calls follow the shape of the dose curve; as a rule, active = well fitted curve in the direction sought with a large enough effect; inconclusive = small, poorly fitted or top-dose-only effect, or another doubt; inactive = no such curve, though single readings can be large; an effect the other way counts as inactive or inconclusive.

[1] CCOC(=O)c1c(NC(C)=O)sc2c1CCN(Cc1ccccc1)C2
[2] CCOC(=O)c1c(NC(C)=O)sc2c1CCC(C=O)=C2Sc1ccccc1
[3] CCCCC(=O)Nc1c(C(=O)N2CCN(c3ccccc3)CC2)oc2ccccc12
[4] Cc1cn2c(=O)cc(COC(=O)c3cccc(NC(=O)c4ccc(C(C)(C)C)cc4)c3)nc2s1
[5] COc1ccc2nc(N3C(=O)/C(=C/c4ccccc4)NC3=S)sc2c1
[6] CCOc1ccc2nc(N3C(=O)/C(=C/c4ccccc4)NC3=S)sc2c1
[7] COc1cc2nc(N3CCOCC3)nc(NC3CC3)c2cc1OC
[8] Cc1ccc(C(=O)c2c(N)c(-c3nc(-c4ccc5c(c4)OCO5)cs3)c3ccccn23)cc1C
Compound,1,2,3,4,5,6,7,8
ClpP mod,1%,0%,-1%,-12%,2%,-13%,4%,-2%
A549 tox,7%,?,?,-15%,-26%,?,nt,0%
Nrf2 ARE act,1%,?,-1%,0%,0%,4%,nt,0%
miR-21 reporter,0%,?,-1%,-11%,-4%,-55%,nt,-2%
Nrf2 inh,13%,21µM*,?,nt,-13%,-18%,nt,3%
p53 reactivator,11%,-12%,nt,nt,8%,13µM*,nt,nt

[9] O=C(Nc1nc(-c2ccncc2)cs1)C1c2ccccc2Oc2ccccc21
[10] Cc1nc(NC(=O)/C=C/c2ccccc2)n[nH]1
[11] CCCn1nnc(NC(=O)/C=C/c2ccccc2)n1
[12] O=C(/C=C/c1ccccc1)Nc1nc(-c2ccncc2)cs1
[13] COC(=O)C1=C[C@@H](C(=O)OC)C2C3=C(C(=O)[C@]2(CC(C)C)NC(=O)c2ccccc2)[C@H](C)n2c(=O)n(C)c(=O)n2[C@@H]3C1 (stereo not given in full)
[14] Brc1ccc(-c2nnc(-c3cccnc3)c3conc23)cc1
[15] COc1ccc(C(=O)n2nc(-c3ccco3)nc2NCc2cccs2)cc1
[16] COc1ccc(OC)c(C(=O)COC(=O)c2ccccc2O)c1
Compound,9,10,11,12,13,14,15,16
ClpP mod,-4%,nt,nt,nt,nt,1%,-5%,-15%
A549 tox,?,-13%,0%,?,1%,-2%,5%,-2%
Nrf2 ARE act,4%,7.1µM*,1%,7%,nt,7.1µM*,-1%,13µM*
miR-21 reporter,-1%,0%,-27%,-1%,nt,nt,-26%,-42%
Nrf2 inh,15µM*,-2%,13%,13µM*,6%,20%,?,0%
p53 reactivator,6%,-19%,5%,9%,nt,nt,nt,?

2 compounds from above, limited to Nrf2 inh, p53 reactivator and ClpP mod.
item	molecule	Nrf2 inh	p53 reactivator	ClpP mod
14	Brc1ccc(-c2nnc(-c3cccnc3)c3conc23)cc1	20%	nt	1%
16	COc1ccc(OC)c(C(=O)COC(=O)c2ccccc2O)c1	0%	?	-15%

Other records
[17] CCc1cc2c(cc3c(=O)n(CC(=O)NC4CCCCC4)ncn32)s1
[18] Cc1ccccc1NC(=S)NCCSc1ccc(Cl)cc1
[19] CCc1ccccc1NC(=S)NCCSc1ccc(Cl)cc1
[20] Cc1ccc(NC(=S)NCCSc2ccc(Cl)cc2)c(C)c1
[21] Cc1ccc(C)c(NC(=S)NCCSc2ccc(Cl)cc2)c1
[22] CC1=C/C(=C\c2ccc(N(C)C)cc2)c2ccccc21
[23] COc1ccc(OC)c(NC(=O)N2CC3CCCN3c3ccccc32)c1 (stereo not given)
[24] CCN(CC(=O)N1CCOCC1)S(=O)(=O)c1cc(Cl)ccc1Cl
Compound,17,18,19,20,21,22,23,24
ClpP mod,-9%,nt,nt,3%,1%,2%,-1%,32µM*
A549 tox,-6%,-21%,?,10%,?,nt,?,3%
Nrf2 ARE act,-1%,-1%,0%,-1%,-1%,nt,3%,0%
miR-21 reporter,-1%,6%,17%,4%,-3%,nt,11%,-5%
Nrf2 inh,7%,23µM*,23µM*,2%,-14%,nt,-8%,-8%
p53 reactivator,nt,3%,-2%,0%,-11%,nt,nt,-3%

Structural class: those above containing a furan ring, fused or not.
[3] CCCCC(=O)Nc1c(C(=O)N2CCN(c3ccccc3)CC2)oc2ccccc12
[15] COc1ccc(C(=O)n2nc(-c3ccco3)nc2NCc2cccs2)cc1
Compound,3,15
ClpP mod,-1%,-5%
A549 tox,?,5%
Nrf2 ARE act,-1%,-1%
miR-21 reporter,-1%,-26%
Nrf2 inh,?,?
p53 reactivator,nt,nt

Carrying on:
[25] Cc1ccccc1C(=O)N1CC(=O)Nc2ccc(Cl)cc2C1c1ccccc1 (stereo not given)
[26] O=C(Nc1nnc(-c2ccc(Cl)cc2)o1)Nc1ccccc1Cl
[27] COc1ccccc1/C=C/c1nc(C#N)c(NC2CCCCC2)o1
[28] COc1ccc(/C=C/c2nc(C#N)c(NC3CCCCC3)o2)cc1OC
Compound,25,26,27,28
ClpP mod,-2%,28µM*,2.8µM*,5%
A549 tox,0%,-5%,-21%,-10%
Nrf2 ARE act,5%,-1%,0%,6%
miR-21 reporter,14%,-8%,4%,2%
Nrf2 inh,-2%[9.27 µM],-9%,?,-11%
p53 reactivator,nt,6%,nt,nt
